Values of other authors as cited in patent US12006290B2, “Crystalline norpsilocin compounds” (CAAMTECH, INC., priority 2020, dated 2024).

The chains behind the UniProt entries cited, without tags or fusion partners.
UniProt P28223, whole entry: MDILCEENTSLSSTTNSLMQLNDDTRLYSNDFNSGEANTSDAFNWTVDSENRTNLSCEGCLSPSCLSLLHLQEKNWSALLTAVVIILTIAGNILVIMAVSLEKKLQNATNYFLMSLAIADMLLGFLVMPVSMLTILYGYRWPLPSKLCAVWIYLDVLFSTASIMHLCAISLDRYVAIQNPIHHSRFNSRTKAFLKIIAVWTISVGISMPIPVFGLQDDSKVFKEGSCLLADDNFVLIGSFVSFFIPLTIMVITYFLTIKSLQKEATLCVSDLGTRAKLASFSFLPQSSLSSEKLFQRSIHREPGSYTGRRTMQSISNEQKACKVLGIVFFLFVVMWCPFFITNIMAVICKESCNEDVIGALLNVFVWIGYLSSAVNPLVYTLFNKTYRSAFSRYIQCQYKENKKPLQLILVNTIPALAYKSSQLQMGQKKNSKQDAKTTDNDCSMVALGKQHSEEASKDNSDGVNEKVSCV

Target: human serotonin 2a receptor (Homo sapiens, UniProt P28223)
Details: synthetic norpsilocin compared to psilocin

For CNCCc1c[nH]c2cccc(O)c12 [norpsilocin, 4-hydroxy-N-methyltryptamine], which “agonist potency at the human serotonin 2a receptor” value is on record?
The value was “as potent if not more compared to psilocin”.
